For one assay, the target named is c-Kit (Homo sapiens (Human), UniProt P10721). The experiment in a line: Inhibition of c-Kit kinase activity (HTRF KinEASE-TK). Particulars: read-out: KIT IC50, biochemical. How it is done: (§1) Inhibition of c-Kit, PDGFRα, PDGFRβ, CSFIR and FLT3 Kinase Activity
(§2) Compounds were evaluated to determine the potency with which they inhibit the kinase activity of the following panel of tyrosine kinases: c-Kit (SignalChem, Product #: K06-11BG), PDGFRα (SignalChem, Product #: P12-18G), PDGFRβ (SignalChem, Product #: P13-11G), CSFIR (SignalChem, Product #: C74-11G) and FLT3 (Invitrogen, Product #: PR4666C). Activity was determined as a function of phosphorylated biotinylated TK peptide generated by the transfer of phosphate from ATP as measured by the use of the HTRF KinEASE-TK assay kit (Cisbio, Product #: 62TKOPEJ). Levels of phosphorylated biotinylated TK peptide (Part 61TKOBLC of KinEASE assay kit) are quantified by its capture by phosphor-TK-Antibody-Cryptate (Part of KinEASE assay kit) and XL665-labeled Streptavidin (Part 610SAXLG of KinEASE assay kit) followed by measurement of Time-Resolved Fluorescence Resonance Energy Transfer (TR-FRET) signal. […] The TR-FRET signal was quantified by measuring the ratio of emission at 665 nm to 620 nm after excitation at 320 nm by reading on a PerkinElmer Envision multimode reader. Compound potencies (IC50 values) were determined using a standard 4-parameter non-linear regression fit.

Amino acid sequences for entries named in this document (tags omitted). A change or cut given only in a name is not applied to a line headed by its entry.
UniProt P10721: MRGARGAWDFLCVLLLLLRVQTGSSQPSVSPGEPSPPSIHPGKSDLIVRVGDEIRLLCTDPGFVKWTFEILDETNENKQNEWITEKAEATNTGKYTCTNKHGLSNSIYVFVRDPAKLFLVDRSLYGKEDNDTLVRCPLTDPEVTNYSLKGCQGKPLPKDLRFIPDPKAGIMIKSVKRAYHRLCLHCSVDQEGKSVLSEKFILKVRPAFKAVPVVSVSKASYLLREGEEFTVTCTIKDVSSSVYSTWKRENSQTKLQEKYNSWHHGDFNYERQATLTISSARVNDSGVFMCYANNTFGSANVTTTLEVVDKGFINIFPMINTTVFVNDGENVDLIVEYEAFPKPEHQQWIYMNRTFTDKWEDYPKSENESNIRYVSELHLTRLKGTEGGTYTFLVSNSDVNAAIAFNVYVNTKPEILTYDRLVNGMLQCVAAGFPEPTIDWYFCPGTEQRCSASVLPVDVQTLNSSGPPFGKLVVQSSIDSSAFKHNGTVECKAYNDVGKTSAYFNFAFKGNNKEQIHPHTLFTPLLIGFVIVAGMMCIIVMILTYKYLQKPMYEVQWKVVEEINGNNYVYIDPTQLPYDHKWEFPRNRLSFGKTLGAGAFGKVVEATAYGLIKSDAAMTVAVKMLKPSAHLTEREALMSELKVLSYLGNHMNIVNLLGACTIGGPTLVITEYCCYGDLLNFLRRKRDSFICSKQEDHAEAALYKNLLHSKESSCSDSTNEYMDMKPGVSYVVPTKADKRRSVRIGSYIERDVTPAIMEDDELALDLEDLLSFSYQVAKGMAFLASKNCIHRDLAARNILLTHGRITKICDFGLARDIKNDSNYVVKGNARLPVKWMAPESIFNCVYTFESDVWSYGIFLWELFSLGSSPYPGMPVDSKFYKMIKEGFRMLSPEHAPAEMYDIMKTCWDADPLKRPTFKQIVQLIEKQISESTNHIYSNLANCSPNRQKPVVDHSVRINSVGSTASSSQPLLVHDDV
UniProt P16234: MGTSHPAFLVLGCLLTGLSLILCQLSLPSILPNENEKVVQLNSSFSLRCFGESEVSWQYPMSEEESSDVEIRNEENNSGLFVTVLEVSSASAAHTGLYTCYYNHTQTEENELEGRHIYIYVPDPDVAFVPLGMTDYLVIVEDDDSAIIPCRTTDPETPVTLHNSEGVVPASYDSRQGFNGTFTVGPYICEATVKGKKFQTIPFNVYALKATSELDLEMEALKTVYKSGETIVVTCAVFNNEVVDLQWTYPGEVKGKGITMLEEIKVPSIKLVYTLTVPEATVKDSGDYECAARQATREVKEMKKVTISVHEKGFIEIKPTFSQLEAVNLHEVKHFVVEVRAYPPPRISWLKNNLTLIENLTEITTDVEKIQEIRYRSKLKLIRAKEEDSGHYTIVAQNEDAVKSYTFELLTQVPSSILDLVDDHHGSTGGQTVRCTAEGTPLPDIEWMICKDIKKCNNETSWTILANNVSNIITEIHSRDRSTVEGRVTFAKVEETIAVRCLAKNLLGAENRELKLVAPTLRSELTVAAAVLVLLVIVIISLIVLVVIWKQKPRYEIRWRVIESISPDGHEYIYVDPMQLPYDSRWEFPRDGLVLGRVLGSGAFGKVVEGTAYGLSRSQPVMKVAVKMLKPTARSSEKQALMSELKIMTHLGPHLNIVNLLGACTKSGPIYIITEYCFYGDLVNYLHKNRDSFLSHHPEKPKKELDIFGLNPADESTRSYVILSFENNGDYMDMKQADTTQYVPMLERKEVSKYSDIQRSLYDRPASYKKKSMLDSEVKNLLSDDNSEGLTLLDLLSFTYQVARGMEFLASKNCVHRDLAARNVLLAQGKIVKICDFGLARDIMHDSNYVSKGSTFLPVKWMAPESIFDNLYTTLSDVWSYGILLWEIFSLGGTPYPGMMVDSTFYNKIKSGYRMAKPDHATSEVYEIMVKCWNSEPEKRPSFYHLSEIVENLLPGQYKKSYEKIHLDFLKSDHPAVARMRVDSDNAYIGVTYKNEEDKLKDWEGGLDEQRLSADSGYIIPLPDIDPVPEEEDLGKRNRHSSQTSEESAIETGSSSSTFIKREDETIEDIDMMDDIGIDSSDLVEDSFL
UniProt P36888: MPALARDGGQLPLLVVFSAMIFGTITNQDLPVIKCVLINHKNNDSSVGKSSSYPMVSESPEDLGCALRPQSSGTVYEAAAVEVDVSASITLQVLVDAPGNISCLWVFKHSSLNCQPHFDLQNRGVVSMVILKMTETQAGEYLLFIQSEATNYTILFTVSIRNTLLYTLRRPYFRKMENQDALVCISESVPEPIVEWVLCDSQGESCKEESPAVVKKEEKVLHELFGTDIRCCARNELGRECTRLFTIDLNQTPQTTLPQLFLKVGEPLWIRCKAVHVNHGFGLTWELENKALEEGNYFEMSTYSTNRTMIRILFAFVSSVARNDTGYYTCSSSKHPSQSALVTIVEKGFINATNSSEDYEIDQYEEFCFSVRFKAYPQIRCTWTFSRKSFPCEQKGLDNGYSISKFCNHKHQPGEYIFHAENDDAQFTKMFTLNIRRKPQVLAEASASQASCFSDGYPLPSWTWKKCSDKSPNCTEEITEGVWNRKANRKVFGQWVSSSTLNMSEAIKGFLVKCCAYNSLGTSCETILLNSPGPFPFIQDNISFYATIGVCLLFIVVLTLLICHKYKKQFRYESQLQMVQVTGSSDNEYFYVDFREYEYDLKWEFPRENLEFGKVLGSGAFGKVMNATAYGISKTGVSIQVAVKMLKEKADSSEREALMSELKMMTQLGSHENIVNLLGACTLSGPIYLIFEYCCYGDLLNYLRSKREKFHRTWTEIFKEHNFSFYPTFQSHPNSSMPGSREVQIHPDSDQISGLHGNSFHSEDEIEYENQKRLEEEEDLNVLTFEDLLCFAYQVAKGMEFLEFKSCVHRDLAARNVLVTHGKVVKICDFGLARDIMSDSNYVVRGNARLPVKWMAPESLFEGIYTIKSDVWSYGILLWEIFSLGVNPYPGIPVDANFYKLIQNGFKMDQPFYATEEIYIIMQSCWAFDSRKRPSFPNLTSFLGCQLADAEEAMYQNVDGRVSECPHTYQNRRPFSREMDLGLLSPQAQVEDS

Another assay has as its target PDGFRα (Homo sapiens (Human), UniProt P16234). The experiment in a line: Inhibition of PDGFRα kinase activity (HTRF KinEASE-TK). Particulars: read-out: PDGFRα IC50, biochemical. The method, then: as §1, §2
(TR-FRET usually uses a lanthanide donor and a delayed reading to cut background.)

In the next assay the target is FLT3 (Homo sapiens (Human), UniProt P36888). The experiment in a line: Inhibition of FLT3 kinase activity (HTRF KinEASE-TK). Particulars: read-out: FLT3 IC50, biochemical. The method, then: as §1, §2
For assay [1], the system named is Phospho-KIT (Y703) in M07e cells. Kind of assay: Phospho-KIT (Y703) cellular assay in M07e cells. In kind it is cell-based. Particulars: read-out: M07e Cell IC50. The method, then:
Phospho-KIT (Y703) Cellular Assay in M07e Cells
The day prior to assay, M07e cells (DSMZ, catalog #ACC 104) were serum starved. Cells were centrifuged and cell pellet resuspended in OptiMEM (Gibco, catalog #31985062) to a density of 1×10^6-2.5×10^6 cells per mL. Cells were then incubated overnight at 5% CO2 and 37° C. in an appropriately sized flask. On the day of the experiment, an 11 point, half log titration of test compound was pre-dispensed into 96-well round bottom polypropylene plates (Corning, catalog #3365). The serum starved M07e cells were centrifuged and resuspended to a cell density of 1×10^6 cells per mL with DPBS (Gibco, catalog #14190-144). Live/Dead Green Fixable viability dye (Invitrogen, catalog #L34970) was added as 1 μL/1 mL of cell suspension. Cells were then incubated in the dark at 4° C. for 30 min. Cells were washed by centrifugation and resuspension with DPBS+0.5% BSA (Gemini Bio Products, catalog #700110/100, 30% BSA solution). […] Samples were then read by flow cytometry. […] The geometric mean of AF647 of the live cell population was recorded. Percentage maximum activity in each test well was calculated based on DMSO (100% activity) and positive control treated cell wells (0% activity). The potencies (IC50 values) of test compounds were determined using a standard 4-parameter non-linear regression fit.

The results in this text go back to patent US20250145606A1 (Arcus Biosciences, Inc., priority 2023, published 2025).

By IC50 is commonly meant the concentration that inhibits the measured activity by half. As for “N-[5-[(5-cyclopropyloxypyridin-2-yl)carbamoyl]-4-fluoro-2-methylphenyl]-2-[[(3R)-oxolane-3-carbonyl]amino]-1,3-thiazole-5-carboxamide”, the IC50 on c-Kit was under 100 nM; at PDGFRα, over 1000 nM; on FLT3, over 1000 nM; in assay [1] it was under 100 nM.
